Values quoted from earlier work in patent US20180273780A1, “WATER-BASED INK COMPOSITION FOR INK JET RECORDING AND COLORING MATERIAL LIQUID” (Seiko Epson Corporation, priority 2017, published 2018).

Substance: ethylhexyl glycerin
- water-octanol partition coefficient (log P): 2.5
